# PglD DTNB = C. jejuni PglD acetyltransferase inhibitors, primary screen, biochemical, DTNB colorimetric, single point; purified PglD enzyme, DTNB colorimetric CoA detection; AID 602405, 2012; inhibition, % at 12.5 µM; 360,000 tested, 0.098% active; in the data active = inhibition above about 16%, passing the limit was not always enough
# Vif inh = HIV Vif self-association inhibitors, primary screen, imaging, HEK293T, single point; HEK293T cells, Vif self-association by quenched fluorescence, 24 h; inhibition, % at 7.49 µM; 340,000 tested, 0.35% active; in the data active = inhibition above about 50%, passing the limit was not always enough
# CAL PDZ FP-1 = untagged CAL PDZ binding inhibitors, primary screen, biochemical, fluorescence polarization, HTS. Golgi-associated PDZ and coiled-coil motif-containing protein (Homo sapiens), Q9HD26. purified CAL PDZ, TMR-peptide fluorescence polarization, 1 h. inhibition, % at 24.9 µM. 300,000 tested, 0.92% active. AID 602252, 2012;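 active = mean inhibition of at least 30% with at least half of replicates also reaching 30%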;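 note: 0% = DMSO neutral control and 100% = excess unlabeled competitor peptide PRC23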
# Yeast UUG start = modulators of start codon recognition fidelity in yeast; AID 602363; activity score, % at 18.7 µM; S. cerevisiae UUG-firefly luciferase reporter, luminescence/redox ratio; 0.13% of 350,000 active;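 active = replicate mean at a twofold rise or more, about +100% in these data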;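 note: firefly luciferase made from a UUG start codon reports start codon fidelity; reporter light over untreated wells divided by growth signal over untreated wells; some hits fall short of that in this replicate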
# ARNT TACC3 PPI = disruptors of ARNT/TACC3 protein interaction, primary screen, biochemical, AlphaScreen, single concentration; 390,000 tested, 0.66% active; inhibition, % at 9.99 µM; AlphaScreen His-ARNT PAS-B/GST-TACC3 binding, luminescence; TACC3 fragment carries E629A point mutation; AID 623870, 2012; Transforming acidic coiled-coil-containing protein 3 (Homo sapiens), Q9Y6A5;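 active = mean inhibition of replicates at least 50% and at least half of replicates each reaching 50%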;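 note: 0% = complete ARNT plus TACC3 wells and 100% = ARNT alone without TACC3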
# CAL PDZ FP-2 = CAL PDZ peptide-binding inhibitors, primary screen, biochemical, fluorescence polarization, Cer-tagged CAL PDZ, HTS. Golgi-associated PDZ and coiled-coil motif-containing protein (Homo sapiens), Q9HD26. purified CAL PDZ, TMR-peptide fluorescence polarization, 1 h. 330,000 tested, 0.02% active. inhibition, % at 20 µM;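 active = highest replicate inhibition of at least 40%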;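 note: plate controls were DMSO neutral control wells for no effect and unlabeled competitor peptide control wells for full effect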
#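 Control set: unlabelled peptide and DMSO controls / Material: purified CerCALP PDZ construct / Timing: 1 h incubation at room temperature before polarization reading / Doses: 20 µM, one dose / Detection: fluorescence polarization (mP)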
# ARNT Alpha ctr-1 = AlphaScreen signal interference compounds, dose response, artefact control for ARNT-TACC3 interaction inhibitor project, biochemical, luminescence, cherry-pick. 1,200 tested, 50% active. AC50, µM (doses to about 68 µM), inactives show at the highest dose activity change, negative = signal decrease. His-ARNT PASB-GST AlphaScreen artifact counter-screen. shares compounds with ARNT TACC3 PPI;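 active = every separate test run was called active for a drop in luminescence, with AC50 within twice the top valid dose, actives reach about 71 µM in these data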
# ARNT Alpha ctr-2 = AlphaScreen signal interference by compounds, dose response, artefact control for ARNT/TACC3 disruptor project, biochemical, dual-tagged ARNT, dry powder; Dual-tagged His-ARNT PASB-GST AlphaScreen artifact counter-screen; 45 tested, 70% active; AC50, µM; shares compounds with ARNT TACC3 PPI;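 active = luminescence drop, with half-maximal potency fitted within twice the sample's top valid dose, cut at about 70 µM in these data; inactive = the rest, including signal moving the wrong way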
# * = called active by the depositor; · = no result given; [ ] = remark or other dose. This is a sample that favours compounds with a hit; in the whole collection about 1.6% have one here.
SMILES,PglD DTNB,Vif inh,CAL PDZ FP-1,Yeast UUG start,ARNT TACC3 PPI,CAL PDZ FP-2,ARNT Alpha ctr-1,others
COC(=O)c1sc(N)c(C(=O)OC)c1Cn1ncc(Cl)c(Cl)c1=O,2,18,4,-24,52*,1,-10%,
CCCN(C)C[C@@H]1Oc2ncc(C#CCC(C)C)cc2C(=O)N([C@@H](C)CO)C[C@H]1C,2,·,·,15,37*,·,-20%[42 µM],
C[C@H](CO)N1C[C@H](C)[C@H](CN(C)Cc2ccccn2)Oc2ncc(C#CC3(O)CCCC3)cc2C1=O,5,·,·,·,·,·,·,
C[C@H](CO)N1C[C@H](C)[C@@H](CN(C)Cc2ccccc2)Oc2ncc(C#Cc3ccccn3)cc2C1=O,·,·,·,-13,·,·,·,
C[C@H]1CN([C@@H](C)CO)C(=O)c2cc(C#Cc3ccccn3)cnc2O[C@@H]1CN(C)Cc1ccccc1,-5,2,·,4,active,·,-7%[42 µM],
C[C@H](CO)N1C[C@H](C)[C@@H](CN(C)Cc2ccccn2)Oc2ncc(C#CC3(O)CCCC3)cc2C1=O,12,·,·,·,19*,·,-9%[38 µM],
C[C@@H]1CN([C@@H](C)CO)C(=O)c2cc(N(C)C)ccc2O[C@H]1CN(C)C(=O)Nc1ccc(C(F)(F)F)cc1,0,·,·,17,-4,·,·,
C[C@@H]1CN([C@@H](C)CO)C(=O)c2cc(NC(=O)CCN3CCOCC3)ccc2O[C@@H]1CN(C)S(=O)(=O)c1cn(C)cn1,-2,·,·,-6,-9,·,·,
CCC(=O)NC(c1ccc(N(C)C)cc1)c1c(O)ccc2ccccc12 (stereo not drawn),-2,-5,-3,7,38*,0,54µM*,
CCC(=O)NC(c1ccc(OC)cc1)c1c(O)ccc2ccccc12 (stereo not drawn),4,6,-4,16,·,-3,·,
Cc1[nH]n2c(=O)c3c(nc2c1-c1ccccc1)CCC3,1,9,·,-15,59*,-2,-1%,
CNCc1cn2cc(Cl)ccc2n1,·,·,0,·,67*,0,-8%,
O=C(O)CSCc1cn2cc(Cl)ccc2n1,8,6,0,-18,-6,0,·,
CC1CCN(S(=O)(=O)c2ccc(C(=O)Nc3nnc(C4=COCCO4)o3)cc2)CC1,0,-16,·,-17,62*,0,-25%,ARNT Alpha ctr-2=>136
O=C(Nc1nnc(C2=COCCO2)o1)c1ccc(S(=O)(=O)N2CCCCC2)cc1,·,-2,3,·,36,-1,·,ARNT Alpha ctr-2=>136
CS(=O)(=O)c1ccccc1-c1nnc(NC(=O)c2ccc(S(=O)(=O)N3CCCC3)cc2)o1,5,8,-2,-21,29,-1,·,
O=C(Nc1nnc(-c2cccs2)o1)c1ccc(S(=O)(=O)N2CCOCC2)cc1,·,-7,2,·,45*,0,34µM*,
O=C(Nc1nnc(C2=COCCO2)o1)c1ccc(S(=O)(=O)N2CCCC2)cc1,·,14,1,·,45,-1,·,
CS(=O)(=O)c1cccc(C(=O)Nc2nnc(C3=COCCO3)o2)c1,·,6,0,·,59*,0,-15%,
COc1c(O)cccc1/C=N/NC(=O)Cn1ccnc1C,-1,-3,4,-16,61*,1,-25%,
COc1cccc(/C=N/NC(=O)Cn2ccnc2C)c1,·,5,1,·,·,-1,·,
C#CCOc1ccc(Br)cc1C(c1c(C)[nH][nH]c1=O)c1c(C)[nH][nH]c1=O,7,-1,3,-24,-6,1,·,
CCOc1ccc(Cl)cc1C(c1c(C)[nH][nH]c1=O)c1c(C)[nH][nH]c1=O,-5,-4,5,-13,active,-1,4%,
Cn1c(N)c(C(=O)c2cc(-c3ccccn3)nc3ccccc23)c(=O)[nH]c1=O,-15,3,8,-31,29*,-4,-15%,
COc1ccc(-c2cc(C(=O)c3c(N)n(C)c(=O)n(C)c3=O)c3ccccc3n2)cc1,·,-3,0,·,-7,-4,·,
# Remaining list, next part.
SMILES,PglD DTNB,Vif inh,CAL PDZ FP-1,Yeast UUG start,ARNT TACC3 PPI,CAL PDZ FP-2,ARNT Alpha ctr-1,others
Cc1ccc(CN(C)C[C@@H]2OCc3cn(nn3)CCCC(=O)N([C@H](C)CO)C[C@@H]2C)cc1,2,·,·,0,-3,·,·,
CO[C@@H]1CN(C)C(=O)c2cc(NC(=O)c3cc(C)on3)ccc2OC[C@H](C)N(CC2CC2)C[C@@H]1C,2,·,·,·,-1,·,·,
CCOC(=O)C(NC(=O)c1cccnc1)(Nc1cccc(C)n1)C(F)(F)F (stereo not drawn),1,12,-2,-20,-4,0,·,
CCOC(=O)C(NCc1ccccn1)(NC(=O)c1cccnc1)C(F)(F)F (stereo not drawn),-12,9,-4,-34,66*,0,-16%,
C[C@@H]1CCCCO[C@H](CN(C)C(=O)C2CCCCC2)[C@H](C)CN([C@@H](C)CO)C(=O)c2cc(NC(=O)CCCN(C)C)ccc2O1,0,·,·,18,0,·,·,
O=C(C[C@H]1C=C[C@H](NS(=O)(=O)c2ccc(F)cc2)[C@H](CO)O1)N1CCN(c2ccccc2)CC1,0,·,·,4,52*,·,0%[38 µM],
O=C(C[C@H]1C=C[C@@H](NS(=O)(=O)c2ccc(F)cc2)[C@H](CO)O1)N1CCN(c2ccccc2)CC1,-1,·,·,1,0,·,·,
Cc1ccc(S(=O)(=O)N(C)C[C@H]2Oc3c(NC(=O)Nc4ccc(F)cc4)cccc3C(=O)N([C@H](C)CO)C[C@@H]2C)cc1,2,·,·,-4,-2,·,·,
COc1ccc(NC(=O)N[C@H]2CC[C@@H](CCn3cc(-c4ccccn4)nn3)O[C@H]2CO)cc1,-5,·,·,-18,65*,·,40µM*,
COc1ccc(NC(=O)N[C@H]2CC[C@@H](CCn3cc(-c4ccccn4)nn3)O[C@@H]2CO)cc1,-6,·,·,-25,95*,·,39µM*,
COCC(=O)Nc1ccc2c(c1)C(=O)N(C)[C@H]1CC[C@H](CC(=O)NCC(F)(F)F)O[C@@H]1CO2,-2,·,·,-17,-3,·,·,

# Source: PubChem BioAssay
